Reference: US10149887B2, “Peptides and peptidomimetics in combination with t cell activating and/or checkpoint inhibiting agents for cancer treatment” (CanBas Co., Ltd., priority 2015, dated 2018)

By UniProt entry, the sequences of proteins in these tests, tags left out.
UniProt O96017, whole entry: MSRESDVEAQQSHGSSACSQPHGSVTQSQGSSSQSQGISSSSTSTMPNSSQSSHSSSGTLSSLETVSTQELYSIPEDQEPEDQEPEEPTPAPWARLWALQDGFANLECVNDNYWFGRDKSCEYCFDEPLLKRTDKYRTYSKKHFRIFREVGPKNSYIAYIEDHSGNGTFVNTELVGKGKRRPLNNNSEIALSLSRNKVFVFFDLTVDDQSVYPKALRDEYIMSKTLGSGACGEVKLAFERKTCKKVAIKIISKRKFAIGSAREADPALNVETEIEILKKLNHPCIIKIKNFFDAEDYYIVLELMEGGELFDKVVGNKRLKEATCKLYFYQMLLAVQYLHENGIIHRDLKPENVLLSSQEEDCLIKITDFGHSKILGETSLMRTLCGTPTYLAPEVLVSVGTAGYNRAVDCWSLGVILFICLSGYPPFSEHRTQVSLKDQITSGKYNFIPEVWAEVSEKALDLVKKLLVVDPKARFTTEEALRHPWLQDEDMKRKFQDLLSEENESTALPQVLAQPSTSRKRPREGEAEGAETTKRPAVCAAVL

How the values were obtained:
[1] = target: T1, recombinant human full length Chk1 (Homo sapiens, UniProt O14757); experiment: In vitro kinase inhibition (CycLex), phosphorylation of serine 216 on GST-Cdc25C; type: biochemical
T1 construct: baculovirus derived recombinant human full length Chk1 with histidine tag; histidine tag; host or cells: baculovirus system (insect cells) for Chk1; E. coli for the GST-Cdc25C substrate
T1 sequence (O14757 1-476): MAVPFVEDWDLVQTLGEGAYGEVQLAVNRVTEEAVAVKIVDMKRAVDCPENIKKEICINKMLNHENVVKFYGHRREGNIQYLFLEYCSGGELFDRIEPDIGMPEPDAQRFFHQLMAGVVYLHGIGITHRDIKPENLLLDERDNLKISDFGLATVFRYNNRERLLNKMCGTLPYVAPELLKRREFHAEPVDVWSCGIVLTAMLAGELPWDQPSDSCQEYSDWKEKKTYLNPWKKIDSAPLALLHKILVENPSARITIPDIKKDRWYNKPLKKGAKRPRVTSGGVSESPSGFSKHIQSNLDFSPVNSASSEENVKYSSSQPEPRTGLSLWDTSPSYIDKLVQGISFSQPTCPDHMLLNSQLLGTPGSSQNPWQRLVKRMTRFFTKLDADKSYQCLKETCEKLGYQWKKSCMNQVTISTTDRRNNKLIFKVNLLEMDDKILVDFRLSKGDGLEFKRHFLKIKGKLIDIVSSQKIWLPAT
Description: (§1) In vitro kinase inhibition analysis was performed by CycLex, Co. Ltd., Nagano, Japan. Briefly, baculovirus derived recombinant human full length Chk1 with histidine tag or E. Coli derived recombinant human full length Chk2 fused with GST were used as kinases. E. Coli derived recombinant GST-Cdc25C (amino acis 167-267) was used as a substrate. Reaction conditions were 20 mM Hepes-KOH (pH7.5), 1 mM DTT, 80 μg/ml BSA, 10 mM MgCl2 and […] at 30 degree for 60 min. The phosphorylation of serine 216 on GST-Cdc25C was detected by anti-Cdc25C-phosphorylated 5216 antibody with enzyme linked immune assay.

[2] = target: T2, recombinant human full length Chk2 (Homo sapiens, UniProt O96017); experiment: as above; type: biochemical
T2 construct: E. Coli derived recombinant human full length Chk2 fused with GST; host or cells: E. coli
Description: as §1

With `N=C(N)NCCC[C@@H](NC(=O)[C@@H](CCCNC(=N)N)NC(=O)[C@@H](CCC(N)=O)NC(=O)[C@@H](CCCNC(=N)N)NC(=O)[C@@H](CCCNC(=N)N)NC(=O)[C@@H](CCCNC(=N)N)NC(=O)[C@@H](CC1CCCCC1)NC(=O)[C@@H](Cc1c(F)c(F)c(F)c(F)c1F)NC(=O)[C@@H](CO)NC(=O)[C@@H](Cc1c[nH]c2ccccc12)NC(=O)[C@@H](CO)NC(=O)[C@H](N)Cc1ccc(C(=O)c2ccccc2)cc1)C(=O)O` [CBP501, (d-Bpa)(d-Ser)(d-Trp)(d-Ser)(d-Phe-2,3,4,5,6-F)(d-Cha)(d-Arg)(d-Arg)(d-Arg)(d-Gln)(d-Arg)(d-Arg)] the IC50 [1] was 7.9 µM and the IC50 [2] was 18.6 µM.
